According to PubChem BioAssay (NCI):
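Five compound concentrations were applied to cells in 96-well plates for 48 hours; endpoints were derived by simple linear interpolation of the resulting dose-response curve. Here, GI50 denotes the concentration required for 50% inhibition of growth. The concentration for full growth arrest is given as TGI.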

Assays:
Test in all cases: NCI tumour cell line growth inhibition, 48 h
SK-MEL-5 melanoma = system: SK-MEL-5 melanoma
SF-539 CNS = system: SF-539 CNS
U251 CNS = system: U251 CNS
HCT-15 colon = system: HCT-15 colon
COLO 205 colon = system: COLO 205 colon
HCT-116 colon = system: HCT-116 colon
K-562 leukemia = system: K-562 leukemia
SF-268 CNS = system: SF-268 CNS
786-0 renal = system: 786-0 renal
DU-145 prostate = system: DU-145 prostate
MDA-MB-435 = system: MDA-MB-435
OVCAR-8 ovarian = system: OVCAR-8 ovarian
CAKI-1 renal = system: CAKI-1 renal
SNB-75 CNS = system: SNB-75 CNS
SN12C renal = system: SN12C renal
EKVX NSCLC = system: EKVX NSCLC
MCF7 breast = system: MCF7 breast
M14 melanoma = system: M14 melanoma
IGROV1 ovarian = system: IGROV1 ovarian
SK-OV-3 ovarian = system: SK-OV-3 ovarian
CCRF-CEM leukemia = system: CCRF-CEM leukemia
OVCAR-3 ovarian = system: OVCAR-3 ovarian
LOX IMVI melanoma = system: LOX IMVI melanoma
HCC-2998 colon = system: HCC-2998 colon
TK-10 renal = system: TK-10 renal
A498 renal = system: A498 renal
UO-31 renal = system: UO-31 renal
MDA-N = system: MDA-N
OVCAR-4 ovarian = system: OVCAR-4 ovarian
SNB-19 CNS = system: SNB-19 CNS
HS 578T breast = system: HS 578T breast
UACC-257 melanoma = system: UACC-257 melanoma
RXF 393 renal = system: RXF 393 renal
MOLT-4 leukemia = system: MOLT-4 leukemia
UACC-62 melanoma = system: UACC-62 melanoma
NCI-H322M lung = system: NCI-H322M lung
KM12 colon = system: KM12 colon
OVCAR-5 ovarian = system: OVCAR-5 ovarian
PC-3 prostate = system: PC-3 prostate
T-47D breast = system: T-47D breast
BT-549 breast = system: BT-549 breast
NCI-H460 lung = system: NCI-H460 lung
HT29 colon = system: HT29 colon
HOP-62 NSCLC = system: HOP-62 NSCLC
SK-MEL-2 melanoma = system: SK-MEL-2 melanoma
RPMI-8226 leukemia = system: RPMI-8226 leukemia
SK-MEL-28 melanoma = system: SK-MEL-28 melanoma
NCI-H522 lung = system: NCI-H522 lung
HOP-92 NSCLC = system: HOP-92 NSCLC
NCI/ADR-RES ovarian = system: NCI/ADR-RES ovarian
HL-60(TB) leukemia = system: HL-60(TB) leukemia
SW-620 colon = system: SW-620 colon
A549 NSCLC = system: A549 NSCLC
NCI-H23 lung = system: NCI-H23 lung
SF-295 CNS = system: SF-295 CNS
MDA-MB-231 breast = system: MDA-MB-231 breast
ACHN renal = system: ACHN renal
NCI-H226 lung = system: NCI-H226 lung

O=[N+]([O-])C(F)(CN(COCN(CC(F)([N+](=O)[O-])[N+](=O)[O-])CC(F)([N+](=O)[O-])[N+](=O)[O-])CC(F)([N+](=O)[O-])[N+](=O)[O-])[N+](=O)[O-]
GI50 (SK-MEL-5 melanoma): 1050 nM | TGI (SK-MEL-5 melanoma): 2810 nM | GI50 (SF-539 CNS): 1710 nM | TGI (SF-539 CNS): 3.16 µM | GI50 (U251 CNS): 677 nM | TGI (U251 CNS): 2220 nM | GI50 (HCT-15 colon): 1370 nM | TGI (HCT-15 colon): 4.53 µM | GI50 (COLO 205 colon): 445 nM | TGI (COLO 205 colon): 1680 nM | GI50 (HCT-116 colon): 878 nM | TGI (HCT-116 colon): 2310 nM | GI50 (K-562 leukemia): 363 nM | TGI (K-562 leukemia): 1490 nM | GI50 (SF-268 CNS): 2510 nM | TGI (SF-268 CNS): 6.82 µM | GI50 (786-0 renal): 385 nM | TGI (786-0 renal): 1140 nM | GI50 (DU-145 prostate): 1720 nM | TGI (DU-145 prostate): 4.11 µM | GI50 (MDA-MB-435): 1090 nM | TGI (MDA-MB-435): 3.32 µM | GI50 (OVCAR-8 ovarian): 1240 nM | TGI (OVCAR-8 ovarian): 4.68 µM | GI50 (CAKI-1 renal): 1550 nM | TGI (CAKI-1 renal): 4.42 µM | GI50 (SNB-75 CNS): 2240 nM | TGI (SNB-75 CNS): 5.9 µM | GI50 (SN12C renal): 31.9 nM | TGI (SN12C renal): 164 nM | GI50 (EKVX NSCLC): 1910 nM | TGI (EKVX NSCLC): 5.56 µM | GI50 (MCF7 breast): 1760 nM | TGI (MCF7 breast): 4.29 µM | GI50 (M14 melanoma): 1560 nM | TGI (M14 melanoma): 3.22 µM | GI50 (IGROV1 ovarian): 405 nM | TGI (IGROV1 ovarian): 1960 nM | GI50 (SK-OV-3 ovarian): 6.58 µM | TGI (SK-OV-3 ovarian): 15.1 µM | GI50 (CCRF-CEM leukemia): 370 nM | TGI (CCRF-CEM leukemia): 1580 nM | GI50 (OVCAR-3 ovarian): 1910 nM | TGI (OVCAR-3 ovarian): 3.92 µM | GI50 (LOX IMVI melanoma): 1090 nM | TGI (LOX IMVI melanoma): 2630 nM | GI50 (HCC-2998 colon): 3.17 µM | TGI (HCC-2998 colon): 6.05 µM | GI50 (TK-10 renal): 1260 nM | TGI (TK-10 renal): 3.23 µM | GI50 (A498 renal): 5.37 µM | TGI (A498 renal): 11.6 µM | GI50 (UO-31 renal): 712 nM | TGI (UO-31 renal): 1630 nM | GI50 (MDA-N): 231 nM | TGI (MDA-N): 736 nM | GI50 (OVCAR-4 ovarian): 2520 nM | TGI (OVCAR-4 ovarian): 7.12 µM | GI50 (SNB-19 CNS): 4.82 µM | TGI (SNB-19 CNS): 13.7 µM | GI50 (HS 578T breast): 2660 nM | TGI (HS 578T breast): 6.67 µM | GI50 (UACC-257 melanoma): 2350 nM | TGI (UACC-257 melanoma): 6.15 µM | GI50 (RXF 393 renal): 3.33 µM | TGI (RXF 393 renal): 20.4 µM | GI50 (MOLT-4 leukemia): 1180 nM | TGI (MOLT-4 leukemia): 3.9 µM | GI50 (UACC-62 melanoma): 1720 nM | TGI (UACC-62 melanoma): 3.77 µM | GI50 (NCI-H322M lung): 8.6 µM | TGI (NCI-H322M lung): 22.5 µM | GI50 (KM12 colon): 315 nM | TGI (KM12 colon): 659 nM | GI50 (OVCAR-5 ovarian): 3.15 µM | TGI (OVCAR-5 ovarian): 7.33 µM | GI50 (PC-3 prostate): 1680 nM | TGI (PC-3 prostate): 3.79 µM | GI50 (T-47D breast): 2910 nM | TGI (T-47D breast): 8.54 µM | GI50 (BT-549 breast): 1630 nM | TGI (BT-549 breast): 4.43 µM | GI50 (NCI-H460 lung): 1990 nM | TGI (NCI-H460 lung): 5.29 µM | GI50 (HT29 colon): 1310 nM | TGI (HT29 colon): 3.2 µM | GI50 (HOP-62 NSCLC): 4.9 µM | TGI (HOP-62 NSCLC): 9.58 µM | GI50 (SK-MEL-2 melanoma): 2320 nM | TGI (SK-MEL-2 melanoma): 6.92 µM | GI50 (RPMI-8226 leukemia): 506 nM | TGI (RPMI-8226 leukemia): 2460 nM | GI50 (SK-MEL-28 melanoma): 1330 nM | TGI (SK-MEL-28 melanoma): 3.21 µM | GI50 (NCI-H522 lung): 193 nM | TGI (NCI-H522 lung): 402 nM | GI50 (HOP-92 NSCLC): 452 nM | TGI (HOP-92 NSCLC): 1590 nM | GI50 (NCI/ADR-RES ovarian): 1240 nM | TGI (NCI/ADR-RES ovarian): 3.58 µM | GI50 (HL-60(TB) leukemia): 159 nM | TGI (HL-60(TB) leukemia): 424 nM | GI50 (SW-620 colon): 777 nM | TGI (SW-620 colon): 2560 nM | GI50 (A549 NSCLC): 4.46 µM | TGI (A549 NSCLC): 14.8 µM | GI50 (NCI-H23 lung): 1880 nM | TGI (NCI-H23 lung): 4.64 µM | GI50 (SF-295 CNS): 2850 nM | TGI (SF-295 CNS): 7.34 µM | GI50 (MDA-MB-231 breast): 230 nM | TGI (MDA-MB-231 breast): 1020 nM | GI50 (ACHN renal): 334 nM | TGI (ACHN renal): 660 nM | GI50 (NCI-H226 lung): 3.65 µM | TGI (NCI-H226 lung): 8.15 µM
